# Results taken from US4774230A, “Glucuronic acid derivatives of opioid antagonists” (Ivax Laboratories, Inc., priority 1988, dated 1988).
# How the values were obtained:
# [1] = system: opioid-dependant animals (central nervous system); assay: Rapid Quantitative In Vivo Assay for Narcotic Antagonist (skin tail temperature rise, CNS withdrawal sign); conditions: FIG. 1; doses as low as 10 μg/kg
# Text: The Rapid Quantitative In Vivo Assay for Narcotic Antagonist of Katovich et al. (Substance and Alcohol Actions/Misuse, vol 5: 87095, 1984) was used. This assay is based on the extreme sensitivity of opioid-dependant animals to narcotic antagonists. Injection of these animals with a narcotic antagonist produces severe central nervous system withdrawal signs. One of these signs is an abrupt rise in the skin temperature of the tail.
# [2] = analysis of blood, urine and feces after oral nalmefene (free nalmefene versus nalmefene glucuronide); assay type: in vivo, rats
# Text: Such a high degree of biotransformation is common for this type of drug. However it was discovered that the relative concentrations of free nalmefene and nalmefene glucuronide in the feces of these animals were in marked contrast to the blood and urine. Whereas the ratio of nalmefene to nalmefene glucuronide in the blood and urine was about 1:100, in the feces the ratio was about 3:1.
compound,measurement,setting,value
"C=C1CC[C@@]2(O)[C@H]3Cc4ccc(O)c5c4[C@@]2(CCN3CC2CC2)[C@H]1O5 [nalmefene, 6-methylene-6-desoxy-N-cyclopropylmethyl-14-hydroxydihydronormorphine]",rise in skin tail temperature,[1],marked rise in skin tail temperature
same,concentration of nalmefene glucuronide relative to free nalmefene,[2],about 100 fold
